Experimental data published in PMC3039689, “Identification of Small Molecule Lead Compounds for Visceral Leishmaniasis Using a Novel Ex Vivo Splenic Explant Model System” (PLoS Neglected Tropical Diseases, 2011).

System: HepG2 cells
Experiment: Cell toxicity (CC50) in the HepG2 cell line, CellTiter-Glo
Assay type: cell-based, human
Conditions: 24 h, ATP luminescence, compound from screened library

## Monensin Sodium
  CC50: 72.9 µM
